The values below come from PMC9146215, “Design of D-Amino Acids SARS-CoV-2 Main Protease Inhibitors Using the Cationic Peptide from Rattlesnake Venom as a Scaffold” (Pharmaceuticals, 2022).

Sequences of proteins named here, by UniProt entry; tags and fusion partners are left off. Residues count along the entry.
UniProt P00791, 60-385: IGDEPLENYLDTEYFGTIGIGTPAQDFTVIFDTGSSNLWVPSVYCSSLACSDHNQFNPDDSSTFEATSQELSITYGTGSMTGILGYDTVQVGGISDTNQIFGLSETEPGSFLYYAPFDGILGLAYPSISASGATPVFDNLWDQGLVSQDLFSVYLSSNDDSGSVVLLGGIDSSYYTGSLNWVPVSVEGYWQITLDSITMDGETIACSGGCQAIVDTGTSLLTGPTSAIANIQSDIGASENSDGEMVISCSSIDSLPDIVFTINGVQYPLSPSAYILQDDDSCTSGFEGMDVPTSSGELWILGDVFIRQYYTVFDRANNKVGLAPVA

One data set concerns the target pepsin (Sus scrofa, UniProt P00791). The data set can be described thus: L- and D-peptide stability against pepsin hydrolysis (simulated gastric fluid). The data set is classed as in vitro ADME. The following applies: simulated gastric fluid: 3.2 mg/mL pepsin, pH 1.0, 37 °C, 4 and 8 h; RP-HPLC. The protocol: (§1) As protein hydrolysis is initiated by pepsin, we have performed a hydrolysis experiment simulating gastric fluid for both selected L- and D-peptides. After incubation over 4 and 8 h, the sample was analysed using RP-HPLC (Supplementary Figure S8).
(§2) The preparation of the pepsin solution was performed as described before. The experiment solution contains 2 mg/mL NaCl, 3.2 mg/mL pepsin, and 80 mM HCL at a pH 1.0. This solution simulated gastric fluid. […] Samples were taken after 0 h, 4 h, and 8 h. The samples were analysed by reversed-phase high-performance liquid chromatography (RP-HPLC). The RP-HPLC system (Agilent Technologies, Santa Clara, CA, USA; 1200 series) consisted of a manual injector, quaternary pump, a thermostatted column compartment, and a variable wavelength detector. Chromatography was performed with a C18 column (Agilent Technologies, Santa Clara, CA, USA; ZORBAX 300SB-C18 5 µm, 4.6 × 250 mm) at 25 °C and 214 nm with a flow rate of 1 mL/min. The sample injection volume was 20 µL. Chromatograms were recorded and analysed with the Agilent software ChemStation (G2175BA; B03.01). Mobile phases were acetonitrile (A) and water (B), each supplemented with 0.15% trifluoroacetic acid (TFA) (v/v). The samples were measured isocratically at 10% solvent A for 30 min.

Test in data set [1]: as above
Conditions: simulated gastric fluid with pepsin (3.2 mg/mL); simulated gastric fluid: 2 mg/mL NaCl, 3.2 mg/mL pepsin, 80 mM HCl, pH 1.0; 37 °C, 500 rpm; after 8 h; RP-HPLC C18, 214 nm; read-out: Peptide amount remaining after pepsin incubation. The data set is classed as in vitro ADME. The protocol: as §1, §2

Consider `COC(=O)[C@@H](CCCCN)NC(=O)[C@@H](CCCCN)NC(=O)[C@@H](CS)NC(=O)[C@@H](CO)NC(=O)[C@@H](CCCCN)NC(=O)[C@@H](Cc1c[nH]c2ccccc12)NC(=O)[C@@H](CCCNC(=N)N)NC(=O)[C@@H](Cc1c[nH]c2ccccc12)NC(=O)[C@@H](CCCNC(=N)N)NC(=O)[C@@H](CS)NC(=O)[C@@H](CC(=O)O)NC(=O)[C@@H](CCSC)NC(=O)[C@@H](CCCCN)NC(C)=O` [D-CDP7], for which the “Stability against pepsin hydrolysis (in words)” value on pepsin is on record as “stable against pepsin hydrolysis”.

As to `COC(=O)[C@H](CCCCN)NC(=O)[C@H](CCCCN)NC(=O)[C@H](CS)NC(=O)[C@H](CO)NC(=O)[C@H](CCCCN)NC(=O)[C@H](Cc1c[nH]c2ccccc12)NC(=O)[C@H](CCCNC(=N)N)NC(=O)[C@H](Cc1c[nH]c2ccccc12)NC(=O)[C@H](CCCNC(=N)N)NC(=O)[C@H](CS)NC(=O)[C@H](CC(=O)O)NC(=O)[C@H](CCSC)NC(=O)[C@H](CCCCN)NC(C)=O` [L-CDP7], the share remaining at 8 h in data set [1] was roughly 20%.
